Compound activity (PubChem)
TDP1 cell CPT = growth inhibition of DT40 Tdp1-/-;hTDP1 cells with camptothecin (screen for TDP1 inhibitors). chicken DT40 Tdp1-/-;hTDP1 cells + 20 nM CPT, ATP luminescence, 48 h. Potency, µM (titrated, usually from 46.2 µM), without a hit: top-dose activity change, negative = growth inhibition, actives largely listed as inhibitors. actives 12% (n = 420,000). AID 686979; note: potency is the fitted concentration of half-maximal effect; % is set by controls: 0 for no effect and ±100 for the full control effect; nearly all actives have a fitted effect of over 55% in size
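Chicken DT40 Tdp1-/- cells complemented with human TDP1, 400 cells/well, exposed to compounds plus 20 nM camptothecin for at least 48 h at 37 C; viability read as ATP content by CellTiter-Glo luminescence.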
miR-21 reporter = raises the signal of a miR-21 reporter; Potency, µM (doses to about 38.3 µM), inactives show top-dose reporter change, positive = more light; HeLa miR-21 FLuc reporter, luciferase, 48 h; AID 2288; 340,000 tested, under 10 active; active = well fitted rising curve with a large enough effect; inconclusive = small, poorly fitted or top-dose-only effect; inactive = no such curve, though single readings can be large or run the other way;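 further: % of control where 0% means no effect; miR-21 action dims this reporter so a rising signal means less miR-21 action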
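Compounds were titrated across several concentrations (up to approximately 40 uM) and incubated 48 hours with HeLa miR-21-FLuc reporter cells (miR-21 target sequence downstream of FLuc, endogenous miR-21). Readout was firefly luciferase luminescence after lytic detection reagent.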
uPA surface inh = inhibitors of cell surface uPA generation. cell surface uPA generation assay, qHTS. actives 0.31% (n = 330,000). Potency, µM (top dose mostly 38.3 µM), without a hit: top-dose activity change, negative = inhibition, hits mostly inhibitors; active = well fitted inhibition curve with a large enough effect; inconclusive = small, poorly fitted or top-dose-only effect; inactive = no such curve, though single readings can be large or run the other way; tested in mouse RAW 264.7 cells; note: potency is the fitted concentration of half-maximal effect; % is set by controls: 0 for no effect and ±100 for the full control effect; nearly all actives have a fitted effect of over 55% in size
TDP1 cell noCPT = qHTS for Inhibitors of human tyrosyl-DNA phosphodiesterase 1 (TDP1): qHTS in cells in absence of CPT | actives 15% (n = 420,000) | AID 686978, 2013 | Potency, µM (titrated, usually from 46.2 µM), for the others: at the top dose activity change, negative = growth inhibition, most hits filed as inhibitors | DT40 Tdp1-/- hTDP1 cells, no CPT, ATP luminescence, 48 h; note: potency is the fitted concentration of half-maximal effect; % is set by controls: 0 for no effect and ±100 for the full control effect; nearly all actives have a fitted effect of over 55% in size
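No-CPT arm: Tdp1-/-;hTDP1 DT40 cells (400/well) plus compounds, incubated ≥48 hr at 37 °C. Readout CellTiter-Glo luminescence.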
TDP1 inh = blocks human tyrosyl-DNA phosphodiesterase 1. Q9NUW8. actives 0.28% (n = 350,000). AID 485290. Potency, µM (series often up to 130 µM), without a hit: top-dose activity change, negative = inhibition, most hits filed as inhibitors. recombinant TDP1, AlphaScreen DNA substrate cleavage; note: potency is the fitted concentration of half-maximal effect; % is set by controls: 0 for no effect and ±100 for the full control effect; nearly all actives have a fitted effect of over 40% in size
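Here, a 5' biotin and 3' phosphotyrosine-FITC DNA oligonucleotide reports Tdp1 activity: intact substrate bridges AlphaScreen beads, while cleavage leaves a 3' phosphate and drops signal. All incubations at room temperature.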
An asterisk follows results filed as active; ? = inconclusive; · = not tested or not shown. This is a sample that favours compounds with a hit; in the whole collection about 16% have one here. Unless noted, calls come from the whole dose curve; as a rule, active = well fitted curve in the direction sought with a large enough effect; inconclusive = small, poorly fitted or top-dose-only effect, or another doubt; inactive = no such curve, though single readings can be large; an effect the other way counts as inactive or inconclusive.

1: CCOc1cc(NC(=S)NCC2CCCO2)c(OCC)cc1NC(=O)c1ccccc1C (stereo not given)
2: O=C(Cc1ccc(Br)cc1)Nc1ccc(S(=O)(=O)NCC2CCCO2)cc1 (stereo not given)
3: Cc1ccccc1C(=O)Nc1ccc(S(=O)(=O)NCC2CCCO2)cc1 (stereo not given)
4: CC1(C)N=C(SCC(=O)Nc2ccccc2)C(c2ccc(Cl)cc2)=N1
5: O=C(CSC1=NC2(CCCCCC2)N=C1c1ccccc1)Nc1ccc2c(c1)OCCO2
6: Cc1ccc(C2=NC(C)(C)N=C2SCC(=O)Nc2ccc(Cl)cc2)cc1
7: Cc1cccc(C)c1NC(=O)c1ccc2sc([C@H]3C[C@H](O)[C@@H](CO)O3)nc2c1
8: Cn1c(=O)c(=O)n(C)c2cc(S(=O)(=O)N3CCCC3C(=O)NCc3cccnc3)ccc21 (stereo not given)

| assay / compound | 1 | 2 | 3 | 4 | 5 | 6 | 7 | 8 |
| --- | --- | --- | --- | --- | --- | --- | --- | --- |
| TDP1 cell CPT | 29µM* | 12µM* | 10µM* | 23µM* | ? | 21µM* | ? | 6% |
| miR-21 reporter | 1% | 8% | · | 16% | -11% | 7% | · | 0% |
| uPA surface inh | 5% | -2% | · | -10% | -11% | -10% | · | 2% |
| TDP1 cell noCPT | ? | 18µM* | 13µM* | 15µM* | ? | ? | -6% | 10% |
| TDP1 inh | 6% | -5% | · | 2% | 0% | 2% | · | · |

9: COc1cc(/C=c2\sc3nc(-c4ccncc4)nn3c2=O)ccc1OC(C)=O
10: CC(=O)Oc1cccc(/C=c2\sc3nc(-c4ccco4)nn3c2=O)c1
11: Cc1cc(C(=O)CSc2nnc3c(Cl)cc(Cl)cn23)c(C)n1C
12: Cc1cc(N2CCCC2)nc(SCC(=O)c2ccccc2)n1
13: Cc1cc(N2CCOCC2)nc(SCC(=O)c2ccc(Cl)cc2)n1
14: CC1CN(C(=O)c2ccccc2Nc2ccc(SC(F)F)cc2)CC(C)O1 (stereo not given)
15: CC1CCCC(C)N1C(=O)c1ccccc1Nc1ccc(SC(F)F)cc1 (stereo not given)
16: O=C(Cn1cnc2ccccc21)Nc1ccc(SC(F)F)cc1

| assay / compound | 9 | 10 | 11 | 12 | 13 | 14 | 15 | 16 |
| --- | --- | --- | --- | --- | --- | --- | --- | --- |
| TDP1 cell CPT | · | ? | -20% | ? | 16µM* | 3% | 23µM* | 21µM* |
| miR-21 reporter | -2% | -3% | 2% | -11% | -9% | 5% | 10% | 10% |
| uPA surface inh | · | -3% | 3% | 2% | 4% | 4% | 5% | -2% |
| TDP1 cell noCPT | · | 16µM* | -4% | 23µM* | ? | -27% | 21µM* | 2.3µM* |
| TDP1 inh | 0% | · | -1% | 5% | 5% | -1% | 3% | 4% |

17: CN(C)C(=O)COC(=O)c1ccccc1OCC(=O)Nc1ccc(SC(F)F)cc1
18: O=C(COc1ccccc1C(=O)O)Nc1ccc(SC(F)F)cc1
19: O=C(COC(=O)c1ccccc1C(=O)c1ccccc1)Nc1ccc(SC(F)F)cc1
20: CC(C)c1ccc(NC(=O)C2CC2c2ccccc2)cc1 (stereo not given)
21: CC[N+](CC)(CC)CC(=O)Nc1ccc(SC(F)F)cc1
22: CC(C)(C)NC(=O)COC(=O)c1ccccc1Nc1ccc(SC(F)F)cc1
23: Cc1cccc(C)c1NC(=O)COC(=O)c1ccccc1Nc1ccccc1
24: CCn1c(N)[n+](CC(=O)Nc2ccc(SC(F)F)cc2)c2ccccc21

| assay / compound | 17 | 18 | 19 | 20 | 21 | 22 | 23 | 24 |
| --- | --- | --- | --- | --- | --- | --- | --- | --- |
| TDP1 cell CPT | ? | 16µM* | ? | ? | ? | ? | ? | ? |
| miR-21 reporter | -3% | -15% | -1% | -9% | -2% | -1% | -2% | 22% |
| uPA surface inh | -21% | -1% | -3% | 4% | -2% | -11% | -1% | -10% |
| TDP1 cell noCPT | 9.2µM* | 16µM* | ? | -5% | -19% | 16µM* | 9.2µM* | 13µM* |
| TDP1 inh | -2% | 8% | -1% | · | 4% | 4% | 4% | 6% |

25: CCN(CC)c1ccc(-c2nn3c(-c4n[nH]c5c4CCC5)nnc3s2)cc1
26: C1CCC(c2nn3c(-c4n[nH]c5c4CCC5)nnc3s2)CC1
27: Cc1ccc(C)c(CSc2nnc(C)c(=O)n2N)c1
28: O=C(c1c[nH]c(C(=O)C(Cl)(Cl)Cl)c1)c1ccccc1F
29: O=C(c1c[nH]c(C(=O)C(Cl)(Cl)Cl)c1)c1c(F)cccc1F
30: CC(Oc1ccccc1)C(=O)OCC(=O)Nc1ccc2c(c1)OCO2 (stereo not given)
31: CCCCCCCc1ccc(C2NC(=S)NC3=C2C(=O)c2ccccc23)cc1 (stereo not given)
32: CCN(CC)c1c(C)nc2ccc(C(=O)NCc3ccc4c(c3)OCO4)cn12

| assay / compound | 25 | 26 | 27 | 28 | 29 | 30 | 31 | 32 |
| --- | --- | --- | --- | --- | --- | --- | --- | --- |
| TDP1 cell CPT | 0.92µM* | ? | 12% | ? | ? | 7% | 16µM* | -13% |
| miR-21 reporter | 19% | -18% | 3% | 0% | -1% | · | -3% | · |
| uPA surface inh | -11% | 0% | -6% | 2% | 0% | 3% | 2% | · |
| TDP1 cell noCPT | 0.65µM* | ? | -4% | ? | 21µM* | 9% | ? | ? |
| TDP1 inh | 6% | 9% | 3% | · | · | 2% | · | · |

Complete entries as entered above. Order of values: TDP1 cell CPT, miR-21 reporter, uPA surface inh, TDP1 cell noCPT, TDP1 inh
Cc1cccc(C)c1NC(=O)c1ccc2sc([C@H]3C[C@H](O)[C@@H](CO)O3)nc2c1 reads ?, ·, ·, -6%, ·
CC(C)c1ccc(NC(=O)C2CC2c2ccccc2)cc1 (stereo not given) reads ?, -9%, 4%, -5%, ·

Remaining list, next part:
33: Cc1nc2ccc(C(=O)NCCc3c[nH]c4ccccc34)cn2c1N(C)C(=O)CCc1ccccc1
34: CCc1nc2ccc(C(=O)NCc3ccc4c(c3)OCO4)cn2c1N(C)C(=O)Cc1ccccc1
35: CCc1nc2ccc(C(=O)NCc3ccc4c(c3)OCO4)cn2c1N(CC)CCN(C)C
36: Cc1nc2ccc(C(=O)NCCCn3ccnc3)cn2c1N(C)C(=O)CCc1ccccc1
37: CCc1nc2ccc(C(=O)NCc3ccc4c(c3)OCO4)cn2c1N(C)Cc1cccs1
38: CCc1nc2ccc(C(=O)NCc3ccc4c(c3)OCO4)cn2c1N(CCC(C)C)CCN(C)C
39: COc1ccc(NC(=S)NNC(=O)c2cccs2)cc1
40: Cc1ccnn1-c1ccc(C(=O)NCC(c2ccco2)N2CCCC2)cc1 (stereo not given)

| assay / compound | 33 | 34 | 35 | 36 | 37 | 38 | 39 | 40 |
| --- | --- | --- | --- | --- | --- | --- | --- | --- |
| TDP1 cell CPT | 23µM* | -36% | 0% | -11% | ? | 21µM* | -23% | -24% |
| miR-21 reporter | · | · | · | · | · | · | -60% | · |
| uPA surface inh | · | · | · | · | · | · | 2% | 4% |
| TDP1 cell noCPT | 23µM* | 23µM* | -1% | 3% | 16µM* | ? | ? | 2% |
| TDP1 inh | · | · | · | · | · | · | 3% | -1% |

41: CCCSc1nc2c(c(=O)[nH]c(=O)n2C)n1C
42: CCc1nc2ccc(C(=O)NCCOc3ccc(OC)cc3)cn2c1N(C)C(=O)COc1ccccc1
43: CCc1nc2ccc(C(=O)NCc3ccc(OC)cc3)cn2c1N(C)C(=O)Cc1ccccc1
44: CC(C)(C)C(=O)NC(=S)Nc1ccccc1C(=O)Nc1ccccc1
45: COc1ccc(C2=CSC3=C(C(=O)c4cccc(S(=O)(=O)N(C)C)c4)CCN23)cc1
46: COc1ccc(N(C)S(=O)(=O)c2cccc(C(=O)N3CCN(c4ccccc4)CC3)c2)cc1
47: CCCCNC(=O)c1nc(C2CCN(S(=O)(=O)c3cccc(C(F)(F)F)c3)CC2)oc1-c1cccc(C(F)(F)F)c1

| assay / compound | 41 | 42 | 43 | 44 | 45 | 46 | 47 |
| --- | --- | --- | --- | --- | --- | --- | --- |
| TDP1 cell CPT | -11% | ? | ? | -7% | 23µM* | ? | 0% |
| miR-21 reporter | -10% | · | · | -7% | -3% | · | · |
| uPA surface inh | -6% | · | · | 3% | -4% | 0% | · |
| TDP1 cell noCPT | -4% | 4% | 21µM* | -15% | 16µM* | ? | 6% |
| TDP1 inh | 8% | · | · | -2% | 2% | -1% | · |

Exported tab-delimited: 2 of the compounds above.
entry	molecule	TDP1 cell CPT	miR-21 reporter	uPA surface inh	TDP1 cell noCPT	TDP1 inh
37	CCc1nc2ccc(C(=O)NCc3ccc4c(c3)OCO4)cn2c1N(C)Cc1cccs1	?	·	·	16µM*	·
38	CCc1nc2ccc(C(=O)NCc3ccc4c(c3)OCO4)cn2c1N(CCC(C)C)CCN(C)C	21µM*	·	·	?	·
